US20250064955A1, “DRUG CONJUGATES AND METHODS OF PREPARING AND USING THE SAME” (priority 2021, published 2025)

Tested on: HCC1954 breast ductal carcinoma cells
Assay: In vitro potency, cell viability (Cell Titer Glo 2.0), HCC1954
Type: cell-based
Settings: HCC1954, 120 hours
Protocol: HCC1954 breast ductal carcinoma or SK-BR-3 cells (ATCC, Manassas, VA, USA) were seeded into 384-well white-walled culture plates and allowed to adhere for 2-4 hours. Cells were then treated with test articles at least in duplicate by addition of 5-fold serially diluted test articles prepared at 2× final concentration and incubated at 37° C. for 120 hours. Cell viability following treatment was determined by Cell Titer Glo 2.0 Assay (Promega, Madison, WI, USA) and normalized to non-treated controls. Dose-response relationships were analyzed using GraphPad Prism (La Jolla, CA, USA), and IC50 values were derived from non-linear regression analyses using a 4-parameter logistic equation.

Substance: Trastuzumab-23
- IC50: 0.06 nM

Substance: Trastuzumab-MC-VC-MMAE: Trastuzumab conjugated with MC-VC-PABC-MMAE Seagen drug-linker
- IC50: 0.04 nM
